The list shows a part of the results, in another mix than the full data. Active and inactive are the calls of the source.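 The calls were made as follows: active = mean inhibition across replicates of 30% or more, whatever share of single replicates reach that level; inconclusive = mean inhibition below 30% while every single replicate reaches 30%; inactive = the rest.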

Sequences of proteins named here, by UniProt entry; tags and fusion partners are left off.
UniProt P07237, whole entry: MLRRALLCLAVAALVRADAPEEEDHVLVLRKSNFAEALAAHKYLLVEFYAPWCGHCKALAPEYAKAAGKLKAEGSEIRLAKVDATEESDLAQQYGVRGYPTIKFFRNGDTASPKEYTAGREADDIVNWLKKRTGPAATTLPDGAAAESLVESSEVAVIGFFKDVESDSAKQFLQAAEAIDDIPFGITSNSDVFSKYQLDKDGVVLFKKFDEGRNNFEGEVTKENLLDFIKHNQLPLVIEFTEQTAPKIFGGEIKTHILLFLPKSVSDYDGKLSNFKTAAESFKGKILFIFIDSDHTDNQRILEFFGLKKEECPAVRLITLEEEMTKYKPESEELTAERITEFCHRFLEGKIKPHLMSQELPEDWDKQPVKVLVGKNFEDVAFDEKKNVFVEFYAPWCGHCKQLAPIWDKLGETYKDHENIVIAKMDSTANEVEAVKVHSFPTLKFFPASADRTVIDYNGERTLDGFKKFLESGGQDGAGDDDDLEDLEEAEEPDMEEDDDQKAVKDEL

The test has as its target Protein disulfide-isomerase (Homo sapiens) (UniProt P07237). The test can be described thus: blockers of PDI-driven insulin aggregation – biochemical, turbidity, single point, plate reader, primary screen (AID 588391).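 Also: absorbance from insulin aggregation driven by PDI reduction with DTT.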 The following applies: A650, 90 min, at 10 µM, hits give high values.
The term inhibition denotes the drop in the measured response relative to a control, in per cent. Regarding `CCN1CCC(Nc2ccc(Cl)cc2)CC1`, the inhibition is inactive: 3.47%.
The same measure for `N#CC1(Nc2ccccc2)CCN(CCc2ccccc2)CC1`: inactive: -7.13%.
As to `O=C(NCC1(N2CCCCC2)CCCCC1)c1cccc([N+](=O)[O-])c1`, the inhibition was inactive: 12.9%.
Turning to `CSc1ccc(C(=O)NCC2(N3CCOCC3)CCCCC2)cc1`, the inhibition is inactive: 16.2%.
On to `O=C(NCC1(N2CCCCC2)CCCCC1)c1ccc(OC(F)F)cc1`, for which the inhibition was inactive: -3.32%.
The same measure for `O=C(NCC1(N2CCOCC2)CCCCC1)c1cc(=O)[nH]c2ccccc12`: inactive: 2.44%.
The same measure for `COc1cc(C(=O)NCC2(N3CCCCC3)CCCCC2)ccc1OC(F)F`: inactive: -2.17%; for `COc1ccc(NC2CCN(C(=O)OC(C)(C)C)CC2)cc1`: inactive: 5.3%.
With `CC(C)c1ccc(C(=O)NCC2(N3CCOCC3)CCCCC2)cc1` the figure was inactive: 2.24%; with `CN1CCN(CCOC(=O)C(O)(c2ccccc2)c2ccccc2)CC1`, inactive: 14.8%.
As to `O=C(NCC1(N2CCCCC2)CCCCC1)c1cccc(C(F)(F)F)c1`, the inhibition is inactive: 3.89%.
With `COc1cc(OC)c(C(=O)NCC2(N(C)C)CCCCC2)cc1OC` the figure was inactive: 1.71%; with `O=C(NCC1(N2CCOCC2)CCCCC1)c1cc(F)c(F)cc1Cl`, inactive: -2.47%.
As to `CC(C)c1ccc(NC2CCN(C(=O)OC(C)(C)C)CC2)cc1`, the inhibition is inactive: 1.92%.
On to `COc1ccc(CN(CCCl)CCCl)cc1Cl`, for which the inhibition is inactive: 5.68%.
With `CN(C)c1cccc(C(=O)NCC2(N3CCCCC3)CCCCC2)c1` the figure was inactive: 1.3%; with `Cc1ccc(C(=O)NCC2(N(C)C)CCCCC2)o1`, inactive: -0.327%.
The same measure for `CCCOc1ccc(C(=O)NCC2(N(C)C)CCCCC2)cc1OC`: inactive: -0.213%; for `CN1CCC(Nc2cccc(F)c2)CC1`: inactive: 11.2%.
The same measure for `O=C(NCC1(N2CCCCC2)CCCCC1)c1cncc(Br)c1`: inactive: -2.25%; for `CSc1ccccc1C(=O)NCC1(N2CCCCC2)CCCCC1`: inactive: -4.27%; for `Cc1cccc(NC2(C#N)CCN(Cc3ccccc3)CC2)c1`: inactive: 3.46%.
In the case of `COc1ccc(C(=O)NCC2(N3CCCCC3)CCCCC2)cc1`, the inhibition was inactive: -1.65%.
With `COc1ccc(C(=O)NCC2(N3CCCCC3)CCCCC2)c(OC)c1OC` the figure was inactive: -7.89%.
With `CC(C)(C)OC(=O)N1CCC(N(C(=O)c2ccccc2)c2ccc(F)cc2)CC1` the figure was inactive: -1.9%; with `O=C(NCC1(N2CCCCC2)CCCCC1)c1ccc(=O)[nH]c1`, inactive: 3.58%.
With `O=C(NCC1(N2CCCCC2)CCCCC1)c1cccs1` the figure was inactive: 0.718%.
In the case of `O=C(NCC1(N2CCCCC2)CCCCC1)c1ccc(Cl)s1`, the inhibition is inactive: -11.2%.
With `N#CC1(Nc2ccccc2)CCN(Cc2ccccc2)CC1` the figure was inactive: 0.0395%.
With `O=C(OC1CN2CCC1CC2)C1c2ccccc2Oc2ccccc21` (centres undefined) the figure was inactive: 3.1%; with `COc1ccc(Cl)cc1C(=O)NCC1(N2CCOCC2)CCCCC1`, inactive: 7.55%; with `CCOC(=O)N1CCC(Nc2ccc(OC)cc2)CC1`, inactive: 6.53%.
In the case of `O=C(NCC1(N2CCCCC2)CCCCC1)c1ccc(Cl)nc1`, the inhibition is inactive: 8.5%.
The same measure for `Cc1cc(C)cc(N(C(=O)c2ccccc2)C2CCN(C(=O)OC(C)(C)C)CC2)c1`: inactive: -1.23%; for `O=C(NCC1(N2CCOCC2)CCCCC1)c1cc2ccccc2o1`: inactive: -1.57%.
The same measure for `CCCCOc1ccc(C(=O)NCC2(N3CCOCC3)CCCCC2)cc1`: inactive: -0.809%.
The same measure for `O=P1(N(CCCl)CCCl)SCCCS1`: inactive: 6.61%; for `O=C(NCC1(N2CCCCC2)CCCCC1)c1ccc(F)cc1`: inactive: 2.2%.
Take `CCOC(=O)N1CCC(Nc2ccc(F)cc2)CC1`: the inhibition is inactive: 2.12%.
With `COc1ccc(NC2CCN(CCc3ccccc3)CC2)c(OC)c1` the figure was inactive: -2.93%.
The same measure for `CCOc1ccc(C)cc1CN(CCCl)CCCl`: inactive: 1.48%; for `CCOC(=O)N1CCC(Nc2cccc(C)c2)CC1`: inactive: 1.03%; for `COc1cc(C(=O)NCC2(N(C)C)CCCCC2)ccc1OC(F)F`: inactive: -1.24%.
In the case of `Cc1ccc(C(=O)NCC2(N3CCCCC3)CCCCC2)o1`, the inhibition was inactive: 2.18%.
With `Fc1ccccc1NC1CCN(Cc2ccccc2)CC1` the figure was inactive: 0.488%.
The same measure for `Cc1ccc(NC2(C#N)CCN(Cc3ccccc3)CC2)cc1`: inactive: -3.91%.
The same measure for `CC(=O)N(c1ccccc1)C1CCNCC1`: inactive: 12.7%; for `COc1cc(OC)cc(C(=O)NCC2(N3CCCCC3)CCCCC2)c1`: inactive: 2.96%; for `O=C(NCC1(N2CCCCC2)CCCCC1)c1ccco1`: inactive: -10.2%.
Take `CN(C)c1ccc(C(=O)NCC2(N3CCCCC3)CCCCC2)cc1`: the inhibition is inactive: 6.64%.
As to `Cn1c(=O)[nH]cc(N(CCCl)CCCl)c1=O`, the inhibition was inactive: 2.13%.
With `Cc1ccccc1NC1(C#N)CCN(Cc2ccccc2)CC1` the figure was inactive: 1.62%.
The same measure for `CCN1CCC(Nc2cccc(F)c2)CC1`: inactive: -3.74%; for `CC(C)(C)OC(=O)N1CCC(Nc2ccccc2)CC1`: inactive: 2.61%; for `O=C(O)C1(Nc2ccccc2)CCN(Cc2ccccc2)CC1`: inactive: -7.56%.
Take `CCCOc1ccc(C(=O)NCC2(N(C)C)CCCCC2)cc1`: the inhibition was inactive: 7.2%.
With `CCOc1ncccc1C(=O)NCC1(N2CCOCC2)CCCCC1` the figure was inactive: -7.93%; with `CN1CCC(Nc2ccc(F)c(Cl)c2)CC1`, inactive: 7.93%.
On to `CN1CCC(Nc2ccc(Cl)cc2)CC1`, for which the inhibition was inactive: 2.02%.
With `COc1cccc(C(=O)N(c2cc(C)cc(C)c2)C2CCN(C(=O)OC(C)(C)C)CC2)c1` the figure was inactive: -1.81%; with `COc1cc(OC)cc(C(=O)NCC2(N3CCOCC3)CCCCC2)c1`, inactive: 0.275%; with `CCC(CO)(C(=O)OC1CN2CCC1CC2)c1ccccc1` (centres undefined), inactive: -4.55%.
With `COc1ccc(C(=O)NCC2(N3CCOCC3)CCCCC2)cc1OC` the figure was inactive: 0.111%.
For `COc1cc(C(=O)NCC2(N3CCOCC3)CCCCC2)cc(OC)c1C`, the inhibition was inactive: -4.05%.
Regarding `O=C(NCC1(N2CCOCC2)CCCCC1)c1cc(Br)ccc1Cl`, the inhibition was inactive: 4.75%.
With `O=C(OC1CN2CCC1CC2)C1c2ccccc2C=Cc2ccccc21` (centres undefined) the figure was inactive: 4.57%.
The same measure for `CCOC(=O)N1CCC(Nc2ccc(C)cc2)CC1`: inactive: 12.2%; for `N/C(=N\O)c1c(N)no[n+]1[O-]`: inactive: -3.69%.
The same measure for `N#Cc1ccc(C(=O)NCC2(N3CCCCC3)CCCCC2)cc1`: inactive: -0.155%; for `CC(C)(C)OC(=O)N1CCC(N(C(=O)c2ccccc2)c2ccc(Cl)cc2)CC1`: inactive: -4.09%; for `CN(C)C1(CNC(=O)c2cccc(C#N)c2)CCCCC1`: inactive: -21.3%.
For the molecule `c1ccc(CN2CCC(Nc3ccccc3)CC2)cc1`, the inhibition is inactive: 10.1%.
The same measure for `CCCN1CCC(Nc2cc(OC)cc(OC)c2)CC1`: inactive: -0.677%.
The same measure for `Cc1cc(N(CCCl)CCCl)ccc1C=O`: inactive: 3.17%.
